Laboratory results: US20260152502A1, “PIPERIDINYL-METHYL-PURINE AMINE SALTS, CRYSTALLINE FORMS, AND THEIR USE IN TREATING MEDICAL DISEASES AND CONDITIONS” (K36 THERAPEUTICS, INC., priority 2022, published 2026)

Test: water solubility of the crystalline solid
Format: physicochemical
Details: for water solubility (mg/mL of the free base (S)-1-((R)-3-amino-1-(...)piperidin-3-yl)-2,2-difluoroethan-1-ol): pH 7.0 (phosphate buffer), 37° C.; for water solubility: pH 6.8, 37° C.

| Substance | water solubility (mg/mL of the free base (S)-1-((R)-3-amino-1-(...)piperidin-3-yl)-2,2-difluoroethan-1-ol) (after 30 minutes) [mg/mL] | water solubility (after 30 minutes) [µg/mL] | water solubility (after 24 hours) [µg/mL] |
| --- | --- | --- | --- |
| Benzenesulfonic Acid Salt of (S)-1-((R)-3-amino-1-(4-((6-amino-9H-purin-9-yl)methyl)-6-(2,5-difluoro-4-methoxyphenyl)pyridin-3-yl)piperidin-3-yl)-2,2-difluoroethan-1-ol [Example 2] | 1.49 |  |  |
| Phosphoric Acid Salt of (S)-1-((R)-3-amino-1-(4-((6-amino-9H-purin-9-yl)methyl)-6-(2,5-difluoro-4-methoxyphenyl)pyridin-3-yl)piperidin-3-yl)-2,2-difluoroethan-1-ol [Example 10] | 0.28 |  |  |
| L-Aspartic Acid Salt of (S)-1-((R)-3-amino-1-(4-((6-amino-9H-purin-9-yl)methyl)-6-(2,5-difluoro-4-methoxyphenyl)pyridin-3-yl)piperidin-3-yl)-2,2-difluoroethan-1-ol [Example 11] | 0.98 |  |  |
| Phosphoric Acid Salt of (S)-1-((R)-3-amino-1-(4-((6-amino-9H-purin-9-yl)methyl)-6-(2,5-difluoro-4-methoxyphenyl)pyridin-3-yl)piperidin-3-yl)-2,2-difluoroethan-1-ol [Example 9] | > 2.0 |  |  |
| Maleic Acid Salt of (S)-1-((R)-3-amino-1-(4-((6-amino-9H-purin-9-yl)methyl)-6-(2,5-difluoro-4-methoxyphenyl)pyridin-3-yl)piperidin-3-yl)-2,2-difluoroethan-1-ol [Example 1] |  | 870 | > 2000 |
| D-Gluconic Acid Salt of (S)-1-((R)-3-amino-1-(4-((6-amino-9H-purin-9-yl)methyl)-6-(2,5-difluoro-4-methoxyphenyl)pyridin-3-yl)piperidin-3-yl)-2,2-difluoroethan-1-ol [Example 7] | 0.53 |  |  |
